System: catalepsy
Test: Catalepsy assay (bar test)
Assay type: in vivo, C57BI/6J mice
Settings: risperidone 1, 5 mg/kg p.o., 30 and 90 min after administration
Description: Twenty-four male C57BI/6J mice were divided randomly into four groups. Mice were placed in a room 1 h before testing. They were administered vehicle, risperidone (1 or 5 mg/kg, p.o.; 0.1 ml/10 g), 50A (100 mg/kg, p.o.; 0.1 ml/10 g), or 50B (100 mg/kg, p.o.; 0.1 ml/10 g). The front paws of mice were placed on a horizontal metal bar raised 2 inches above a Plexiglas™ platform 30 min and 90 min after administration. The time the front paws of mice were placed on the platform was recorded at ≤30 s per trial. Each test was repeated three times.

SMILES: Cc1nc2n(c(=O)c1CCN1CCC(c3noc4cc(F)ccc34)CC1)CCCC2 [risperidone, reference compound]
- Time mice spent holding bars (catalepsy): increased the time mice spent holding bars significantly

From PMC10160475, “Biological evaluation and in silico studies of novel compounds as potent TAAR1 agonists that could be used in schizophrenia treatment” (Frontiers in Pharmacology, 2023)
